pIC50: −log10 of the molar value.
Target: Purified bacterial β-glucuronidases (Purified GUS) (UniProt P05804)
Experiment: Purified bacterial β-glucuronidase (Purified GUS) activity assay with PNPG substrate
Assay type: biochemical
Conditions: Table 2

By UniProt entry, the sequences of proteins in these tests, tags left out. Where a name states a change or a piece, a line headed by the entry shows the natural chain unless it says otherwise.
UniProt P05804: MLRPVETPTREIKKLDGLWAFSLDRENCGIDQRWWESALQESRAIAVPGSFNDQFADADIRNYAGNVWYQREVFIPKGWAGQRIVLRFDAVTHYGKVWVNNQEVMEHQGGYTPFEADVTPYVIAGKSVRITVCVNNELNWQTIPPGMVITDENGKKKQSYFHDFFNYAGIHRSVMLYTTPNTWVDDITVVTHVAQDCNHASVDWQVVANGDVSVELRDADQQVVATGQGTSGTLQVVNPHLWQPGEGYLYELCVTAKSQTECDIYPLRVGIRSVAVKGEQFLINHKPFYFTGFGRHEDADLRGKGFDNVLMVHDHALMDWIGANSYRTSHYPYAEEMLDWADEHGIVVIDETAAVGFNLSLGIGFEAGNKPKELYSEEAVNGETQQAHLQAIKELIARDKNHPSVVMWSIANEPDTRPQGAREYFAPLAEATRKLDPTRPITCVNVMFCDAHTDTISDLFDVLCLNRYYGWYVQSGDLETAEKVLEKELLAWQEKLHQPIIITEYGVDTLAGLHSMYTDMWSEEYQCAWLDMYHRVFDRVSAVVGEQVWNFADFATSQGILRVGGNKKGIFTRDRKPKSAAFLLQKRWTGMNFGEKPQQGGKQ

SMILES	pIC50
Cc1cc(C)c2[nH]c(=O)c(CN(CCO)C(=O)Cc3ccccc3C(C)(C)C)cc2c1	6.04
Cc1cc(C)c2[nH]c(=O)c(CN(CCO)C(=O)c3cccc(I)c3)cc2c1	< 4.30
Cc1cc(C)c2[nH]c(=O)c(CN(CCO)C(=O)Cc3ccccc3Cl)cc2c1 [Ex. 8, 2-(2-chlorophenyl)-N-[(6,8-dimethyl-2-oxo-1H-quinolin-3-yl)methyl]-N-(2-hydroxyethyl)acetamide]	6.24
Cc1cc(C)c2[nH]c(=O)c(CN(CCO)C(=O)c3cccc(Br)c3)cc2c1	< 4.30
O=Cc1cc2cc(Br)cc(Br)c2[nH]c1=O	< 4.00
Cc1cc(C)c2[nH]c(=O)c(CN(CCO)C(=O)C(C)c3ccccc3Br)cc2c1 (stereo not drawn)	4.96
Cc1cc(C)c2[nH]c(=O)c(CN(CCO)C(=O)c3ccccc3I)cc2c1	< 4.30
COc1ccc(CC(=O)N(CCO)Cc2cc3cc(C)cc(C)c3[nH]c2=O)c(Cl)c1	5.54
Cc1cc(C)c2[nH]c(=O)c(CN(CCO)C(=O)Nc3ccc(C(F)(F)F)cc3)cc2c1	< 4.00
Cc1cc(C)c2[nH]c(=O)c(CN(CCO)C(=O)Nc3ccccc3C(F)(F)F)cc2c1	< 4.00
Cc1cc(C)c2[nH]c(=O)c(CN(CCO)C(=O)Nc3ccccc3C)cc2c1	5.66
COc1cccc(NC(=O)N(CCO)C(C)c2cc3cc(C)cc(C)c3[nH]c2=O)c1 (stereo not drawn)	5.43
Cc1cc(C)c2[nH]c(=O)c(CN(CCO)C(=O)c3ccccc3Br)cc2c1	4.89
C#Cc1cc(NC(=O)N(CCO)C(C)c2cc3cc(C)cc(C)c3[nH]c2=O)ccc1F (stereo not drawn)	5.96
COc1ccc(Br)c(NC(=O)N(CCO)Cc2cc3cc(C)cc(C)c3[nH]c2=O)c1	5.48
Cc1cc(C)c2[nH]c(=O)c(CN(CCO)C(=O)Cc3ccccc3C)cc2c1	5.30
Cc1cc(C)c2[nH]c(=O)c(CN(CCO)C(=O)Nc3cccc(OC(F)(F)F)c3)cc2c1	4.61
COc1ccc(Br)c(CC(=O)N(CCO)Cc2cc3cc(C)cc(C)c3[nH]c2=O)c1 [Ex. 12, 2-(2-bromo-5-methoxy-phenyl)-N-[(6,8-dimethyl-2-oxo-1H-quinolin-3-yl)methyl]-N-(2-hydroxyethyl)acetamide]	6.03

SMILES	pIC50
Cc1cc(C)c2[nH]c(=O)c(CN(CCO)C(=O)Cc3cccc(S(C)(=O)=O)c3)cc2c1	4.66
Cc1cc(C)c2nc(Cl)c(C(C)N(CCO)C(=O)Nc3ccccc3C(C)C)cc2c1 (stereo not drawn)	< 4.60
Cc1cc(C)c2[nH]c(=O)c(CN(CCO)C(=O)Nc3ccc(C(C)C)cc3)cc2c1	5.59
Cc1cc(C)c2[nH]c(=O)c(CN(CCO)C(=O)Nc3cccc(C(F)(F)F)c3)cc2c1	< 4.00
O=c1[nH]c2c(Br)cc(Br)cc2cc1CO	< 4.00
Cc1cc(C)c2[nH]c(=O)c(CN(CCO)C(=O)Nc3ccc(OC(F)(F)F)cc3)cc2c1	< 4.00
Cc1cc(C)c2[nH]c(=O)c(CN(CCO)S(=O)(=O)Cc3cccc(Br)c3)cc2c1	5.49
Cc1cc(C)c2[nH]c(=O)c(CN(CCO)C(=O)Cc3ccccc3)cc2c1	5.07
Cc1cc(C)c2[nH]c(=O)c(CN(CCO)C(=O)Cc3ccccc3I)cc2c1	6.09
COc1ccc(Cl)c(NC(=O)N(CCO)Cc2cc3cc(C)cc(C)c3[nH]c2=O)c1	5.44
Cc1cc(C)c2[nH]c(=O)c(CN(CCO)C(=O)Cc3ccccc3Br)cc2c1 [Ex. 4, 2-(2-bromophenyl)-N-[(6,8-dimethyl-2-oxo-1H-quinolin-3-yl)methyl]-N-(2-hydroxyethyl)acetamide]	6.02
COc1ccccc1NC(=O)N(CCO)Cc1cc2cc(C)cc(C)c2[nH]c1=O	5.61
COc1ccc(NC(=O)N(CCO)Cc2cc3cc(C)cc(C)c3[nH]c2=O)cc1	5.68
Cc1cc(C)c2[nH]c(=O)c(C(C)N(CCO)C(=O)Nc3cccc(C(C)C)c3)cc2c1 (stereo not drawn)	5.17
Cc1cc(C)c2[nH]c(=O)c(CN(CCO)C(=O)Nc3c(C)cccc3C)cc2c1	6.27
Cc1cc(C)c2[nH]c(=O)c(CN(CCO)C(=O)Nc3ccc(Br)cc3)cc2c1	5.75
CCOc1ccc(NC(=O)N(CCO)Cc2cc3cc(C)cc(C)c3[nH]c2=O)cc1	5.56
Cc1cccc(NC(=O)N(CCO)C(C)c2cc3cc(C)cc(C)c3[nH]c2=O)c1 (stereo not drawn)	5.78
